These are literature values, as cited in patent US11319376B2, “Combination of glucagon receptor antagonists and PI3K pathway inhibitors for the treatment of cancer” (REMD Biotherapeutics, Inc., priority 2016, dated 2022).

The chains behind the UniProt entries cited, without tags or fusion partners.
UniProt P78527, whole entry: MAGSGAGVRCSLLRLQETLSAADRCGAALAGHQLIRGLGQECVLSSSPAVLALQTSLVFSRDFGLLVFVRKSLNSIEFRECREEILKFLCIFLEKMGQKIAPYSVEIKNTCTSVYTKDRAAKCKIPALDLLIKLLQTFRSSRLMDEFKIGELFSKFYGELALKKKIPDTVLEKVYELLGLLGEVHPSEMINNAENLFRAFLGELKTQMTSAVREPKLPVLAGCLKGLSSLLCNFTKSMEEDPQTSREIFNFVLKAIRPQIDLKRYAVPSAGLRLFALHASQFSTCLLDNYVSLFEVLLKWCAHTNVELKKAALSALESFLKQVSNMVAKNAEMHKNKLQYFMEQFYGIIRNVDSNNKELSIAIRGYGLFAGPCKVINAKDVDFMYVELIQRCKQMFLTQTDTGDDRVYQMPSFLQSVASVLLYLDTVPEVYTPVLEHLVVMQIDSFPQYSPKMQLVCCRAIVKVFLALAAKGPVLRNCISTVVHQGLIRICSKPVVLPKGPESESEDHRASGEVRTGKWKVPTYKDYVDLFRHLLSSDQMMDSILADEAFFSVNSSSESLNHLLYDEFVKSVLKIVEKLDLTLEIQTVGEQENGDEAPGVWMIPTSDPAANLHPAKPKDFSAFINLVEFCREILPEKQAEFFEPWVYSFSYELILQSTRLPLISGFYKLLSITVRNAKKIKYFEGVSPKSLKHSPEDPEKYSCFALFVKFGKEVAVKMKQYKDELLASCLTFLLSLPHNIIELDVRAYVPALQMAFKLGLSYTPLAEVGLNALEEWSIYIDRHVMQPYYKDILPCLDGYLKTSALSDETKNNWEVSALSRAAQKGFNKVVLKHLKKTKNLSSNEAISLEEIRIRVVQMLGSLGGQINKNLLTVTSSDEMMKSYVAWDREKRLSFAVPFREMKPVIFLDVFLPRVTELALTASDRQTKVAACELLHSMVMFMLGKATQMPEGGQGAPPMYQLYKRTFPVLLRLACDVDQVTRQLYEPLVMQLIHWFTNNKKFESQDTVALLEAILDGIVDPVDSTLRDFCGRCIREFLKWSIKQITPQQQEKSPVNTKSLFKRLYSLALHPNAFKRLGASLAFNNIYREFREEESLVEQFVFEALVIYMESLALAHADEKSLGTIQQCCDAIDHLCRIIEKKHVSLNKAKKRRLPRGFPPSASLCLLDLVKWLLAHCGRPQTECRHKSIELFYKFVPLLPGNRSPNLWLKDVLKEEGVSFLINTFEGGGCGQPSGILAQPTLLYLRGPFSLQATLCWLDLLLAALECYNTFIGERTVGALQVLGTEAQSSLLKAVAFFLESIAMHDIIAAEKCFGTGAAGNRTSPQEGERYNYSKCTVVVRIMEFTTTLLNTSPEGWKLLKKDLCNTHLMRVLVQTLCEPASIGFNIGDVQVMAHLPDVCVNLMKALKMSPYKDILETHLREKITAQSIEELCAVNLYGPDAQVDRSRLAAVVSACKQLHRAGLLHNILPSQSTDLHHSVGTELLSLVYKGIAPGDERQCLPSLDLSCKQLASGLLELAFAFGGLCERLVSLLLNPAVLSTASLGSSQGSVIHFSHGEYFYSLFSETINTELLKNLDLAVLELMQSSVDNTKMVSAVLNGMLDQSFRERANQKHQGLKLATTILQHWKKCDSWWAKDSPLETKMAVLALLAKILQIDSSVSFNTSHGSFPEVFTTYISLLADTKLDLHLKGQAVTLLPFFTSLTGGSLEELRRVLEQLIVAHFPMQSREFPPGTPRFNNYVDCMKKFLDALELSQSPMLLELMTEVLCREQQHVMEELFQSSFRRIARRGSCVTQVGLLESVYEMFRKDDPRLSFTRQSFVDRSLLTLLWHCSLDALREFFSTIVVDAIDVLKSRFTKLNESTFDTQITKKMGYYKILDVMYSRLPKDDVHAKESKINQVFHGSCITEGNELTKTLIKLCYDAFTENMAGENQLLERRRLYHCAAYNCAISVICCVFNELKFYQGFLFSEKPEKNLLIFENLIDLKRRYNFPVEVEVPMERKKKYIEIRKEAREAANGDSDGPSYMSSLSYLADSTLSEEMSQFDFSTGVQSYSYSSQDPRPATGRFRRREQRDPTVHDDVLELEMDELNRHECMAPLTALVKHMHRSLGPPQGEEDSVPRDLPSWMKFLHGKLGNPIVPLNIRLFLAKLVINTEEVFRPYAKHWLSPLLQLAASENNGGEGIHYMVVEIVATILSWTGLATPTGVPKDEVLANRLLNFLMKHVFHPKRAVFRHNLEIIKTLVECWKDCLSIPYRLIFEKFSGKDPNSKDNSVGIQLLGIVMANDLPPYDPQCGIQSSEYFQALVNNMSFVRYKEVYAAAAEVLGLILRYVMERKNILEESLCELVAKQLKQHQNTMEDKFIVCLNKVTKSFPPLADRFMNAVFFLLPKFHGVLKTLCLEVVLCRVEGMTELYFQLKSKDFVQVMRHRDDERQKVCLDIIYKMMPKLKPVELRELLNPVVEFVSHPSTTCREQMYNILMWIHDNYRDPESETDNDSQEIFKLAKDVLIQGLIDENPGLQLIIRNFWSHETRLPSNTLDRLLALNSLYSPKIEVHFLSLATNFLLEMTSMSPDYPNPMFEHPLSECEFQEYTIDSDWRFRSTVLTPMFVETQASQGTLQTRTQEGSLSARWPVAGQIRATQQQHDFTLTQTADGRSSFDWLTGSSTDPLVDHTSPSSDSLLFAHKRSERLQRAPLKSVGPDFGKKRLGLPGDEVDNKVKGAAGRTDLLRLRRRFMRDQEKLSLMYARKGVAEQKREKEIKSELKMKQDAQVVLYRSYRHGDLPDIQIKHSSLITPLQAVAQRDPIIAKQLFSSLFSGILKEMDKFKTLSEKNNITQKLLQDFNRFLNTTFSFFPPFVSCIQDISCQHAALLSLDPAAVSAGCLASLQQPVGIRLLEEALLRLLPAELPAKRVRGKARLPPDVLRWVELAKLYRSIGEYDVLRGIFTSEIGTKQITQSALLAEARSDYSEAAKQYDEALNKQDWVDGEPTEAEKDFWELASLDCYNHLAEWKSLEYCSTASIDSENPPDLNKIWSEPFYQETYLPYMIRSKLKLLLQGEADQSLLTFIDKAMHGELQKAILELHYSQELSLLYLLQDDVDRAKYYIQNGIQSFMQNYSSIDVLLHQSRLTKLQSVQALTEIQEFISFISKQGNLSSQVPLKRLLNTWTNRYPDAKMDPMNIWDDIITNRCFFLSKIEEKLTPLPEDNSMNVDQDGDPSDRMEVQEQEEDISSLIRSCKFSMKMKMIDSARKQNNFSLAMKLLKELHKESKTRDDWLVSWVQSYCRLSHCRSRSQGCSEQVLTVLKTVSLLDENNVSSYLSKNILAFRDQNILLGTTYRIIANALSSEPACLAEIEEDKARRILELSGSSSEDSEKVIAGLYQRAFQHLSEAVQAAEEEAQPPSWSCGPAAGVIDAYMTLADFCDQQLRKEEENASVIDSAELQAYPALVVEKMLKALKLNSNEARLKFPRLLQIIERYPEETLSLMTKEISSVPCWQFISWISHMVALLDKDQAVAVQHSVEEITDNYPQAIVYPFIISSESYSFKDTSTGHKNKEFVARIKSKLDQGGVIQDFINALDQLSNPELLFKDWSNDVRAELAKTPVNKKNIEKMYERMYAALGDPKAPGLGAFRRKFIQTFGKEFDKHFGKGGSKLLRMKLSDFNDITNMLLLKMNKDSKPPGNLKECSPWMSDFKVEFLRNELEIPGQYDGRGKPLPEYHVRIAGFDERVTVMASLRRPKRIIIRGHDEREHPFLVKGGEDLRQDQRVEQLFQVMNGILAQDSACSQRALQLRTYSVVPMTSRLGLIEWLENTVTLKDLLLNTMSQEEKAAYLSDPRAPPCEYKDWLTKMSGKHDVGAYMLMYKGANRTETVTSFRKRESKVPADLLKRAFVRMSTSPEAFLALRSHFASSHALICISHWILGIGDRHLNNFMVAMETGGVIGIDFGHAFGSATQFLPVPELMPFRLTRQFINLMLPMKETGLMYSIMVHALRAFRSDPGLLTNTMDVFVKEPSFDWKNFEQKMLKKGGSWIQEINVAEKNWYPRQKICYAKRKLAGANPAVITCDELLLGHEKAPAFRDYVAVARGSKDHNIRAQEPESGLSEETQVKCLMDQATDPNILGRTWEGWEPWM

Broadly, the IC50 is the midpoint of a concentration-inhibition curve.

This data set concerns the target DNAPK (Homo sapiens, UniProt P78527). The conditions noted are these: read-out: Target Selectivity (IC50) DNAPK; cited from earlier work.

`Cc1c(CN2CCN(C(=O)[C@H](C)O)CC2)sc2c(N3CCOCC3)nc(-c3cnc(N)nc3)nc12` [GDC-0980, apitolisib]: the IC50 was 0.623 µM.
